Several values for one entry are separate records, joined by “and”; a condition that tells them apart may be missing. Identical values can stand only once. This is a selection; strong and weak results do not stand in their true shares. Some tests of the compounds listed are not included; inactive here does not mean inactive elsewhere. Activity calls are given as the source filed them. Calls come from the whole dose curve; as a rule, active = well fitted inhibition curve with a large enough effect; inconclusive = small, poorly fitted or top-dose-only effect; inactive = flat fitted curve, though single readings scatter.
The molecules below were run against pyruvate kinase (Trypanosoma brucei) (UniProt Q57TT1) (assay: qHTS of Trypanosoma Brucei Inhibitors). Conditions: TbPYK enzyme, Kinase-Glo Plus ATP luminescence, 45 min; at 76.8 µM (top of the series).
% is set by controls: 0 for no effect and ±100 for the full control effect.
Note: nearly all actives have a fitted effect of over 50% in size.

SMILES	activity, negative = inhibition
COc1cc(C(=O)NCC2(N(C)C)CCCCC2)c([N+](=O)[O-])cc1OC	inactive: 0.977%
CN(C)C1(CNC(=O)c2ccc(Br)cc2)CCCCC1	inactive: 5.99%
O=C(NCC1(N2CCCCC2)CCCCC1)c1cccc(Cl)c1	inactive: 0.265%
COc1ccc(C(=O)NCC2(N(C)C)CCCCC2)cc1Cl	inactive: -7.17%
COc1ccc(Cl)cc1C(=O)NCC1(N(C)C)CCCCC1	inactive: 0.539%
COc1cccc(C(=O)NCC2(N3CCCCC3)CCCCC2)c1	inactive: -22.5%
CC(C)COc1ccc(C(=O)NCC2(N(C)C)CCCCC2)cc1	inactive: -5.32%
O=C(OC1CN2CCC1CC2)C(CO)(c1ccccc1)c1ccccc1 (configuration not stated)	inactive: -4.39%
COc1cccc(C(=O)NCC2(N3CCOCC3)CCCCC2)c1	inactive: -11.4%
CN(C)c1cccc(C(=O)NCC2(N(C)C)CCCCC2)c1	inactive: -3.19%
O=C(OCCN1CCCC1)C(O)(c1ccccc1)c1ccccc1	inactive: 2.96%
CC(C)Oc1ccc(C(=O)NCC2(N(C)C)CCCCC2)cc1	inactive: -1.41% and inactive: 0.804%
COc1ccc(Br)c(C(=O)NCC2(N3CCCCC3)CCCCC2)c1	inactive: 1.47%
Cc1cccc(C(=O)NCC2(N(C)C)CCCCC2)c1	inactive: 1.09%
COc1cc(C(=O)NCC2(N(C)C)CCCCC2)cc(OC)c1OC	inactive: 0.856%
C=C(C)C#CC(O)(C(=O)OC1CCN(C)CC1)c1ccccc1 (configuration not stated)	inactive: 6.58%
CN1[C@@H]2CC[C@H]1CC(OC(=O)C(O)(c1ccccc1)c1ccccc1)C2 (some centres not stated)	inactive: -9.22%
O=C(NCC1(N2CCCCC2)CCCCC1)c1cc([N+](=O)[O-])ccc1Cl	inactive: 3.43%
CN(C)C1(CNC(=O)c2ccccc2F)CCCCC1	inactive: -5.4%

SMILES	activity, negative = inhibition
Cc1ccc(C(=O)NCC2(N3CCCCC3)CCCCC2)cc1	inactive: -7.62%
CC(C)N1C(=O)CC2(CCN(CCOC(=O)C(O)(c3ccccc3)c3ccccc3)CC2)C1=O	inactive: -10.4%
COc1cc(SC)ccc1C(=O)NCC1(N(C)C)CCCCC1	inactive: 0.515%
CN(C)C1(CNC(=O)c2cccc(Cl)c2)CCCCC1	inactive: 3.98%
CCN(CC)CC(C)C(C)OC(=O)C(O)(c1ccccc1)c1ccccc1 (configuration not stated)	inactive: 1.5%
CN1CCCC(OC(=O)C(O)(c2ccccc2)c2ccccc2)C1 (configuration not stated)	inactive: 19.5%
CCCCOc1ccccc1C(=O)NCC1(N(C)C)CCCCC1	inactive: -4%
CN(C)c1ccc(C(=O)NCC2(N(C)C)CCCCC2)cc1	inactive: 1.86%
CN(C)C1CCCC1OC(=O)C(O)(c1ccccc1)c1ccccc1 (configuration not stated)	inactive: -19.5%
Cc1ccccc1C(=O)NCC1(N2CCCCC2)CCCCC1	inactive: 7.04%
CN(C)C1(CNC(=O)c2ccccc2[N+](=O)[O-])CCCCC1	inactive: 3.99%
O=C(NCC1(N2CCCCC2)CCCCC1)c1cccc(Br)c1	inactive: -0.427%
CCN1CCCC(OC(=O)C2(O)c3ccccc3C=Cc3ccccc32)C1 (configuration not stated)	inactive: 4.12%
Cc1cc(C(=O)NCC2(N3CCCCC3)CCCCC2)ccc1[N+](=O)[O-]	inactive: 3.42%
CCOc1cccc(C(=O)NCC2(N(C)C)CCCCC2)c1	inactive: 4.97%
COc1ccc(C(=O)NCC2(N(C)C)CCCCC2)cc1	inactive: 4.68%
O=C(NCC1(N2CCCCC2)CCCCC1)c1cc(F)c(F)cc1Cl	inactive: -1.97%
C=CCN1CCN(CCOC(=O)C(O)(c2ccccc2)c2ccccc2)CC1	inactive: 2.32%
